The source of these data is ChEMBL document CHEMBL4706479, “Novel Aryloxyethyl Derivatives of 1-(1-Benzoylpiperidin-4-yl)methanamine as the Extracellular Regulated Kinases 1/2 (ERK1/2) Phosphorylation-Preferring Serotonin 5-HT Receptor-Biased Agonists with Robust Antidepressant-like Activity” (J Med Chem, 2019).

Amino acid sequences for entries named in this document (tags omitted).
UniProt P08908, whole entry: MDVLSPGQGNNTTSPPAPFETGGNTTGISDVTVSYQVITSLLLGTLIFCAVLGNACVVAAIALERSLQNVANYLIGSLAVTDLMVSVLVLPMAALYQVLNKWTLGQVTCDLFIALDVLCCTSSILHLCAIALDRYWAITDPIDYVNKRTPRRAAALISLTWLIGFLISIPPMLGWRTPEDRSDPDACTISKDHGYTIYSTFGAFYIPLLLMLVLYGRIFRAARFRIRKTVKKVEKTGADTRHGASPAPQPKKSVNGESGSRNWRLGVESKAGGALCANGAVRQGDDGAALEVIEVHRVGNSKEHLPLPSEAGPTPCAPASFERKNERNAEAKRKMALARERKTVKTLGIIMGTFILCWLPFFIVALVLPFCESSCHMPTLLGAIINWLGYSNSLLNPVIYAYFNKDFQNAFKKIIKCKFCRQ

Experiment [1] addresses T1, 5-hydroxytryptamine receptor 1A (Homo sapiens, UniProt P08908). Kind of experiment: Biased agonist activity at human recombinant 5-HT1A receptor stably expressed in CHO-K1 cells assessed as increase in calcium mobilization measured at 2 sec intervals for 180 secs by Fluo-4AM dye based fluorescence assay relative to serotonin. In kind it is functional, cell-based. To be noted: filed as partial agonist, time 180.0 sec. Background: A change in cytosolic calcium serves as a functional read-out for many receptors and channels.

The target in experiment [2] is T1, 5-hydroxytryptamine receptor 1A. As to the kind of experiment: Biased agonist activity at human recombinant 5-HT1A receptor stably expressed in CHO-K1 cells assessed as inhibition of forskolin-induced cAMP accumulation after 40 mins by LANCE Ultra cAMP kit-based TR-FRET assay relative to serotonin. Particulars: filed as agonist. In kind it is functional, cell-based.

Usually Emax stands for the greatest response seen or fitted, relative to the assay's reference.

For the compound `Cc1cnc(CNCC2(F)CCN(C(=O)c3ccc(F)c(Cl)c3)CC2)nc1`, the Emax in experiment [1] was 60%; in experiment [2] it was 92%.
